≈ marks a conversion by molar mass, not a printed value. Read-outs that look alike come from different tables or passages of the source. Where a SMILES comes first, the peptide text is derived from it. Bridges are numbered along the chain shown (N, C = ends). [ ]: non-standard residue; d: D form. The star is where a group is joined. ξ: configuration not given here. d(aThr) = C[C@@H](O)[C@@H](N)C(=O)O; Octanoyl(3-OH) = CCCCCC(O)CC(=O)*; X1 = CCCCCC(CC(=O)*)OC(C)=O; dDab = NCC[C@@H](N)C(=O)O; hSer = N[C@@H](CCO)C(=O)O; ξQ = NC(=O)CCC(N)C(=O)O; Dhb = C/C=C(\N)C(=O)O; ξL = CC(C)CC(N)C(=O)O; ξDab = NCCC(N)C(=O)O; ξK = NCCCCC(N)C(=O)O; ξT = CC(O)C(N)C(=O)O; ξV = CC(C)C(N)C(=O)O; ξAbu = CCC(N)C(=O)O; ξP = O=C(O)C1CCCN1; ξS = NC(CO)C(=O)O
Tests used:
[1] = test system: Pseudomonas syringae pv. japonica ICMP6305; conditions: strain ICMP6305, 24 ± 48 h at 25 or 37 °C, triplicate
[2] = test system: Pseudomonas syringae pv. syringae B475; conditions: strain B475, 24 ± 48 h at 25 or 37 °C, triplicate
[3] = test system: Pseudomonas syringae pv. panici ICMP3955; conditions: strain ICMP3955, 24 ± 48 h at 25 or 37 °C, triplicate
Bacillus megaterium QMB = conditions: strain QMB, 24 ± 48 h at 25 or 37 °C, triplicate
[4] = test system: Pseudomonas caryophylli NCPPB 349; conditions: strain NCPPB 349, 24 ± 48 h at 25 or 37 °C, triplicate
[5] = test system: Pseudomonas syringae pv. tabaci ICMP2706; conditions: strain ICMP2706, 24 ± 48 h at 25 or 37 °C, triplicate
Bacillus subtilis PY79 = conditions: strain PY79, 24 ± 48 h at 25 or 37 °C, triplicate
[6] = test system: Colletotrichum truncatum 17-5-5; conditions: strain 17-5-5; cyclic dipeptides, serial dilutions from 10 to 1000 μg/mL, potato dextrose broth, 24-well plates, 28 °C, 7 days; lowest concentration with no visible growth; triplicate
Escherichia coli DH5α = conditions: strain DH5α; cyclic dipeptides, 10 μL drops of serial dilutions from 10 to 1000 μg/mL on LB soft agar; 24 ± 48 h at 25 or 37 °C; triplicate
[7] = lipodepsipeptides, 10 μL drops of serial dilutions from 0.1 to 1 μg/mL on LB soft agar
[8] = cyclic dipeptides, 10 μL drops of serial dilutions from 10 to 1000 μg/mL on LB soft agar

Compound	MIC [1, 7] [mg/L]	MIC [2, 7] [mg/L]	MIC [3, 7] [mg/L]	MIC (Bacillus megaterium QMB; [7]) [mg/L]	MIC [4, 7] [mg/L]	MIC [5, 7] [mg/L]	MIC (Bacillus subtilis PY79; [7]) [mg/L]	MIC [1, 8] [mg/L]	MIC [2, 8] [mg/L]	MIC [3, 8] [mg/L]	MIC [4, 8] [mg/L]	MIC [5, 8] [mg/L]	MIC [6] [mg/L]	MIC (Escherichia coli DH5α) [mg/L]	MIC (Bacillus megaterium QMB; [8]) [mg/L]	MIC (Bacillus subtilis PY79; [8]) [mg/L]
CCCCCC(O)CC(=O)NC(CC)C(=O)N1CCC[C@@H]1C(=O)N[C@H](CO)C(=O)N[C@H](CC(C)C)C(=O)N[C@@H](C(=O)N[C@H](CO)C(=O)N[C@H](CC(C)C)C(=O)N[C@@H](C(=O)N[C@H](C(=O)N[C@H](CCC(N)=O)C(=O)N[C@@H](CC(C)C)C(=O)N[C@@H](C(=O)NC(CC)C(=O)N[C@H]1C(=O)N[C@@H]([C@@H](C)CC)C(=O)N[C@@H](CCO)C(=O)N[C@H](CCN)C(=O)N[C@@H](CCCCN)C(=O)O[C@@H]1C)C(C)C)C(C)C)C(C)C)C(C)C (stereo partly drawn) [compound 16, tetrahydro tolaasin I] ({Octanoyl(3-OH)}-[ξAbu][dP][dS][dL][dV][dS][dL][dV]V[dQ]L[dV][ξAbu][d(aThr)]I[hSer][dDab]K; ester 14-C)	0.9 (≈ 0.452 µM)	0.8 (≈ 0.402 µM)	0.9 (≈ 0.452 µM)	0.2 (≈ 0.1 µM)	0.9 (≈ 0.452 µM)	0.8 (≈ 0.402 µM)	0.2 (≈ 0.1 µM)	–	–	–	–	–	–	–	–	–
C/C=C(\NC(=O)[C@H](NC(=O)[C@H](CC(C)C)NC(=O)[C@@H](CCC(N)=O)NC(=O)[C@@H](NC(=O)[C@H](NC(=O)[C@@H](CC(C)C)NC(=O)[C@@H](COC(C)=O)NC(=O)[C@H](NC(=O)[C@@H](CC(C)C)NC(=O)[C@@H](COC(C)=O)NC(=O)[C@H]1CCCN1C(=O)/C(=C/C)NC(=O)CC(CCCCC)OC(C)=O)C(C)C)C(C)C)C(C)C)C(C)C)C(=O)N[C@H]1C(=O)N[C@@H]([C@@H](C)CC)C(=O)N[C@@H](CCOC(C)=O)C(=O)N[C@H](CCNC(C)=O)C(=O)N[C@@H](CCCCNC(C)=O)C(=O)O[C@@H]1C (stereo partly drawn) [compound 15, hexacetyl tolaasin I] (X1-[Dhb][dP][dS](Ac)[dL][dV][dS](Ac)[dL][dV]V[dQ]L[dV][Dhb][d(aThr)]I[hSer](Ac)[dDab](Ac)K(Ac); ester 14-C)	0.7 (≈ 0.313 µM)	0.8 (≈ 0.357 µM)	0.7 (≈ 0.313 µM)	–	0.9 (≈ 0.402 µM)	0.8 (≈ 0.357 µM)	–	–	–	–	–	–	–	–	–	–
C/C=C(\NC(=O)[C@H](NC(=O)[C@H](CC(C)C)NC(=O)[C@@H](CCC(N)=O)NC(=O)[C@@H](NC(=O)[C@H](NC(=O)[C@@H](CC(C)C)NC(=O)[C@@H](CO)NC(=O)[C@H](NC(=O)[C@@H](CC(C)C)NC(=O)[C@@H](CO)NC(=O)[C@H]1CCCN1C(=O)/C(=C/C)NC(=O)CC(O)CCCCC)C(C)C)C(C)C)C(C)C)C(C)C)C(=O)N[C@H]1C(=O)N[C@@H]([C@@H](C)CC)C(=O)N[C@@H](CCO)C(=O)N[C@H](CCN)C(=O)N[C@@H](CCCCN)C(=O)O[C@@H]1C (stereo partly drawn) [compound 1, tolaasin I] ({Octanoyl(3-OH)}-[Dhb][dP][dS][dL][dV][dS][dL][dV]V[dQ]L[dV][Dhb][d(aThr)]I[hSer][dDab]K; ester 14-C)	0.3 (≈ 0.151 µM)	0.3 (≈ 0.151 µM)	0.2 (≈ 0.101 µM)	0.3 (≈ 0.151 µM)	0.2 (≈ 0.101 µM)	0.3 (≈ 0.151 µM)	0.3 (≈ 0.151 µM)	–	–	–	–	–	–	–	–	–
CC(C)C[C@@H]1NC(=O)[C@@H]2CCCN2C1=O [compound 13, cyclo(L-Pro-L-Leu)]	–	–	–	–	–	–	–	600 (≈ 2850 µM)	600 (≈ 2850 µM)	700 (≈ 3330 µM)	500 (≈ 2380 µM)	500 (≈ 2380 µM)	500 (≈ 2380 µM)	–	–	–
O=C1N[C@@H](Cc2ccc(O)cc2)C(=O)N2CCC[C@H]12 [compound 14, cyclo(D-Pro-L-Tyr)]	–	–	–	–	–	–	–	800 (≈ 3070 µM)	800 (≈ 3070 µM)	900 (≈ 3460 µM)	800 (≈ 3070 µM)	800 (≈ 3070 µM)	800 (≈ 3070 µM)	20 (≈ 76.8 µM)	30 (≈ 115 µM)	35 (≈ 134 µM)
O=C1N[C@@H](Cc2ccc(O)cc2)C(=O)N2CCC[C@@H]12 [compound 9, cyclo(L-Pro-L-Tyr)]	–	–	–	–	–	–	–	15 (≈ 57.6 µM)	15 (≈ 57.6 µM)	15 (≈ 57.6 µM)	15 (≈ 57.6 µM)	15 (≈ 57.6 µM)	20 (≈ 76.8 µM)	–	20 (≈ 76.8 µM)	20 (≈ 76.8 µM)
C/C=C(\NC(=O)C(NC(=O)C(CC(C)C)NC(=O)C(CCC(N)=O)NC(=O)C(NC(=O)C(NC(=O)C(CC(C)C)NC(=O)C(CO)NC(=O)C(NC(=O)C(CC(C)C)NC(=O)C(CO)NC(=O)C1CCCN1C(=O)/C(=C/C)NC(=O)CC(O)CCCCC)C(C)C)C(C)C)C(C)C)C(C)C)C(=O)NC1C(=O)N[C@@H](CC(C)C)C(=O)N[C@@H](CCO)C(=O)NC(CCN)C(=O)NC(CCCCN)C(=O)OC1C (stereo partly drawn) [compound 7, tolaasin D] ({Octanoyl(3-OH)}-[Dhb][ξP][ξS][ξL][ξV][ξS][ξL][ξV][ξV][ξQ][ξL][ξV][Dhb][ξT]L[hSer][ξDab][ξK]; ester 14-C)	0.1 (≈ 0.0503 µM)	0.1 (≈ 0.0503 µM)	0.1 (≈ 0.0503 µM)	0.2 (≈ 0.101 µM)	0.1 (≈ 0.0503 µM)	0.1 (≈ 0.0503 µM)	0.2 (≈ 0.101 µM)	–	–	–	–	–	–	–	–	–
WLIP methyl ester [WILP methyl ester]	–	–	–	0.5	–	–	0.5	–	–	–	–	–	–	–	–	–

Reference: paper PMC9026286, “Bacterial Lipodepsipeptides and Some of Their Derivatives and Cyclic Dipeptides as Potential Agents for Biocontrol of Pathogenic Bacteria and Fungi of Agrarian Plants” (Journal of Agricultural and Food Chemistry, 2022)
